The numbers were not newly measured in PMC3606385 (PLoS ONE, 2013), which cites them from elsewhere.

Chains of the proteins cited; added tags and fusions are not shown. Lines headed by an entry give the natural chain unless they say otherwise; changes in a name come on top.
UniProt P28845: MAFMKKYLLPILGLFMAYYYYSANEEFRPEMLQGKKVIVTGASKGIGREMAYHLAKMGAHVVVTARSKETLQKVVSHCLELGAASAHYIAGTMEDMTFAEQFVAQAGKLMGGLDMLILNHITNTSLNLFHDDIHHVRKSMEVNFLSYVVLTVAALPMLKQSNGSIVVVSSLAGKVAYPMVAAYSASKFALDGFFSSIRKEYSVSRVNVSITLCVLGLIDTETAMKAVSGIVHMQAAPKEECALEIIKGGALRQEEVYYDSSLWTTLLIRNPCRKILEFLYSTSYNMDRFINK

What is called IC50 is the concentration at which inhibition is half-maximal.

One data set addresses T1, Human 11β-HSD1 (Homo sapiens, UniProt P28845).
T1 construct: expressed in transfected cells; host or cells: CHOP cells (transient, FuGENE)
Conditions: human enzyme; cited from earlier work.

For a further data set, the target named is T2, Human 11β-HSD2 (Homo sapiens, UniProt P80365).
T2 construct: The rat and human kidney microsomes were used for 11β-HSD2 sources; tissue Gentest (Woburn, MA); host or cells: human kidney microsomes
T2 sequence (P80365 1-405): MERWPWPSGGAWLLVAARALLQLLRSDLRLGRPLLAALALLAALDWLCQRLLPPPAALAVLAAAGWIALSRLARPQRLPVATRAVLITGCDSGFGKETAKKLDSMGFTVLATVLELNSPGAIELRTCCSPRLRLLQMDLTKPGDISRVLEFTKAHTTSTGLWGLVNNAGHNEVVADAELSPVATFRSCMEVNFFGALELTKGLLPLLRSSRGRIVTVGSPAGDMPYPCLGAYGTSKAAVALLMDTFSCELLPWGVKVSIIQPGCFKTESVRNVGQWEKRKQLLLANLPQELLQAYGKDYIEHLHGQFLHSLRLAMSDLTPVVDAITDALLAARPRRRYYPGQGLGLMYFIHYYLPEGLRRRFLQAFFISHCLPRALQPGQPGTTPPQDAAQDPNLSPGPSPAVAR
The settings on record: cited from earlier work.

On to BVT2733, for which the IC50 on Human 11β-HSD1 is 3.3 µM. Besides, at Human 11β-HSD2, the “Selectivity over human 11β-HSD2” value is reported as “more than 200 fold”.
